## Ab-14 light chain CDR variants: yeast mating affinities

The measurements come from Li et al. 2023 (doi:10.1038/s41467-023-39022-2) through the FLAb antibody collection.

The target is the same throughout: PDVDLGDISGINAS, from the HR2 region of SARS-CoV-2 spike.

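The variants were designed computationally from a first round of random CDR variants and then made and measured. Several design methods are mixed in this list. The scFvs were displayed on barcoded MATa yeast, the peptide on MATalpha yeast. After mating in shaken culture at 30 °C for 16 h, diploids were selected and their barcode pairs sequenced. The ratio of observed to expected reads was calibrated, replicate by replicate, on BCL2-family standards whose Kd was known from biolayer interferometry. Mating was done six times.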

Each scFv is VH, a 15-residue (Gly4Ser)3 linker, VL, as in the parent Ab-14, and differs from it in the CDRs of the light chain only.
VH: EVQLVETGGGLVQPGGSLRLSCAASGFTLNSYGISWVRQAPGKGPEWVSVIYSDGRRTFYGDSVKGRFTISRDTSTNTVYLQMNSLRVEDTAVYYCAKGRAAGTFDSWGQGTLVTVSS
VL: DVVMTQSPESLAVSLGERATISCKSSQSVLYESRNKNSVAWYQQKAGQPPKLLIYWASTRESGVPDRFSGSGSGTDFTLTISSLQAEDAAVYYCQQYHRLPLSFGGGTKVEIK

Changes read parent residue, position, new residue, counted from the first residue of the VL shown.
Variants here have at most six changes.
Scale: log10 of Kd in nM, estimated from mating counts; low values are strong binders.
Replicates are averaged; those with no signal do not enter the mean.
Where no diploid with the target was found in that replicate, the entry reads "nd": below detection, most likely a poor binder, though not proof of it.
The authors averaged sequences with at least three values out of six and counted those with two or fewer as poor binders.
Of ten entries with the parent sequence, four were seen in most replicates (averages 0.34 to 2.37), three in one and three in none, so single entries are noisy.
A sequence measured in both rounds can read differently, since the two assays cover different ranges.
As a blank, each scFv also met three strains without target: over all light chain designs, 4% of these pairings were detected, typically at 2.64 and seldom below 1.59.

- S25L/S26R/S28E/V29T/K36P/W56G = 0.04, -0.16, -0.27, -0.16, -0.17, 0.11 (mean -0.10)
- Y31F/E32K/W56D/A57D/S62F = 0.29, 0.33, 0.42, 0.50, 1.13, 0.49 (mean 0.53)
- Q27I/V29Y/Y31I/A40V/W56E = nd, nd, nd, nd, nd, nd
- Q95L/S103N = nd, nd, nd, nd, nd, nd
- K24G/S25L/W56N = -0.49, -0.44, -0.59, -0.55, -0.54, -0.38 (mean -0.50)
- S25L/V29M/W56N/E61M/S62K = -0.02, 0.08, -0.03, -0.05, -0.01, 0.07 (mean 0.01)
- V39I/Q95A = nd, 1.41, 2.26, nd, nd, 2.77 (mean 2.14)
- S25M/L30P/W56N = 0.14, 0.32, -0.04, 0.01, 0.20, 0.32 (mean 0.16)
- Q27A/V29K/N35D/K36H/S103D = nd, nd, nd, nd, nd, nd
- S25L/S26Q/W56E/T59Q/E61L = 0.09, -0.22, -0.24, -0.25, -0.16, 0.14 (mean -0.11)
- S26A/Q27L/R34G/N35H = 1.79, 2.02, nd, 2.15, 2.18, 1.79 (mean 1.98)
- V29D/Y31D/R34K/K36D/N37Y = 0.98, 1.61, 1.76, 1.80, 1.30, 1.58 (mean 1.50)
- S62L/Q96T = nd, nd, nd, nd, nd, nd
- S25T/Y31F/W56D/Y97F = 0.87, 0.69, 0.68, 0.94, 0.59, 0.59 (mean 0.73)
- S25L/S26E/S28G/V29W/W56N/T59Q = -0.02, 0.01, -0.12, -0.10, 0.08, 0.15 (mean 0.00)
- S25L/S26D/V29W/W56N/E61M = 0.63, 0.76, 0.32, 0.30, 0.20, 0.56 (mean 0.46)
- L30Y/Y31F/S33P/W56N = 0.98, 1.41, 1.43, 0.96, 1.03, 1.39 (mean 1.20)
- Q27A/V29Y/K36E/W56E/S62Q = 0.58, 1.24, 0.54, 0.41, 0.11, 0.67 (mean 0.59)
- S25G/V29W/K36F/N37W/W56G = nd, 1.93, 1.97, 0.84, 0.85, 1.96 (mean 1.51)
- V29Y/L30D/W56G = 0.14, -0.22, -0.21, -0.04, -0.36, 0.17 (mean -0.08)
- Q27I/V29N/W56E = -0.16, -0.56, -0.61, -0.44, -0.59, -0.25 (mean -0.44)
- K24H/S25L/W56N/A57G/S62V = -0.55, -0.43, -0.71, -0.78, -0.69, -0.59 (mean -0.63)
- S26G/S28G/W56G/Q95M/Q96L = 0.98, 1.14, 1.27, 0.25, 0.83, 1.17 (mean 0.94)
- S26P/V29H/L30D/W56N/T59E = 0.19, 0.12, 0.13, 0.18, 0.17, 0.16 (mean 0.16)
- S25L/V29W/S33Q/W56N = 0.30, 0.10, -0.11, -0.04, 0.28, 0.03 (mean 0.09)
- S25L/V29Y/E32G/W56N = -0.16, -0.25, -0.20, -0.26, -0.27, -0.05 (mean -0.20)
- Q27I/V29Y/K36H/W56E = 0.47, 0.06, 0.19, 0.21, 0.30, 0.23 (mean 0.24)
- Q27I/R34M/W56E/T59Q = 0.08, 0.62, -0.04, 0.32, 0.53, 0.81 (mean 0.39)
- S25V/S26P/V29Y/W56N = 0.06, 0.46, 0.32, 0.23, 0.00, 0.33 (mean 0.23)
- S25F/S26E/W56N/E61L = -0.09, -0.04, -0.20, -0.11, -0.25, -0.02 (mean -0.12)
- S25V/R34E/K36S/E61A/S62K/L102F = 1.14, 1.04, 0.66, 0.85, 0.99, 0.97 (mean 0.94)
- S25Q/W56D/E61C = 0.00, 0.73, -0.12, 0.17, -0.16, 0.16 (mean 0.13)
- S25L/V29Q/L30W/W56N = -0.29, -0.39, -0.41, -0.42, -0.36, -0.20 (mean -0.34)
- S25V/S26R/V29T/W56K = 1.01, 0.97, 1.18, 0.61, 0.84, 0.70 (mean 0.89)
- S25F/L30P/W56D = 0.15, -0.16, -0.16, -0.13, -0.19, 0.05 (mean -0.07)
- S25A/S26Y/Q27P/V29Y/W56Q/R99L = 0.11, 0.19, 0.24, 0.08, -0.17, 0.58 (mean 0.17)
- S28D/S38H = nd, 1.68, nd, nd, nd, nd
- S25L/S26P/S38A/W56N/T59Q = -0.47, -0.47, -0.43, -0.45, -0.66, -0.29 (mean -0.46)
- S25M/Y31G/S33Q/N35A/K36Q/W56E = 0.40, 0.40, 0.81, 0.47, 0.28, 0.30 (mean 0.44)
- S26E/T59E = nd, nd, nd, nd, nd, nd
- S25Q/Q27D/Y31Q/W56D = 0.16, 0.07, -0.02, -0.27, -0.27, 0.07 (mean -0.04)

Top 3 of the variants detected in all replicates, tightest first:

{"changes": "K24H/S25L/W56N/A57G/S62V", "log10 Kd, replicates": "-0.55, -0.43, -0.71, -0.78, -0.69, -0.59", "log10 Kd (nM), mean": "-0.63"}
{"changes": "K24G/S25L/W56N", "log10 Kd, replicates": "-0.49, -0.44, -0.59, -0.55, -0.54, -0.38", "log10 Kd (nM), mean": "-0.50"}
{"changes": "S25L/S26P/S38A/W56N/T59Q", "log10 Kd, replicates": "-0.47, -0.47, -0.43, -0.45, -0.66, -0.29", "log10 Kd (nM), mean": "-0.46"}